Reference: ChEMBL document CHEMBL1240342, “Molecular modeling studies of vascular endothelial growth factor receptor tyrosine kinase inhibitors using QSAR and docking” (J Mol Graph Model, 2009)

Amino acid sequences for entries named in this document (tags omitted).
UniProt P35968, whole entry: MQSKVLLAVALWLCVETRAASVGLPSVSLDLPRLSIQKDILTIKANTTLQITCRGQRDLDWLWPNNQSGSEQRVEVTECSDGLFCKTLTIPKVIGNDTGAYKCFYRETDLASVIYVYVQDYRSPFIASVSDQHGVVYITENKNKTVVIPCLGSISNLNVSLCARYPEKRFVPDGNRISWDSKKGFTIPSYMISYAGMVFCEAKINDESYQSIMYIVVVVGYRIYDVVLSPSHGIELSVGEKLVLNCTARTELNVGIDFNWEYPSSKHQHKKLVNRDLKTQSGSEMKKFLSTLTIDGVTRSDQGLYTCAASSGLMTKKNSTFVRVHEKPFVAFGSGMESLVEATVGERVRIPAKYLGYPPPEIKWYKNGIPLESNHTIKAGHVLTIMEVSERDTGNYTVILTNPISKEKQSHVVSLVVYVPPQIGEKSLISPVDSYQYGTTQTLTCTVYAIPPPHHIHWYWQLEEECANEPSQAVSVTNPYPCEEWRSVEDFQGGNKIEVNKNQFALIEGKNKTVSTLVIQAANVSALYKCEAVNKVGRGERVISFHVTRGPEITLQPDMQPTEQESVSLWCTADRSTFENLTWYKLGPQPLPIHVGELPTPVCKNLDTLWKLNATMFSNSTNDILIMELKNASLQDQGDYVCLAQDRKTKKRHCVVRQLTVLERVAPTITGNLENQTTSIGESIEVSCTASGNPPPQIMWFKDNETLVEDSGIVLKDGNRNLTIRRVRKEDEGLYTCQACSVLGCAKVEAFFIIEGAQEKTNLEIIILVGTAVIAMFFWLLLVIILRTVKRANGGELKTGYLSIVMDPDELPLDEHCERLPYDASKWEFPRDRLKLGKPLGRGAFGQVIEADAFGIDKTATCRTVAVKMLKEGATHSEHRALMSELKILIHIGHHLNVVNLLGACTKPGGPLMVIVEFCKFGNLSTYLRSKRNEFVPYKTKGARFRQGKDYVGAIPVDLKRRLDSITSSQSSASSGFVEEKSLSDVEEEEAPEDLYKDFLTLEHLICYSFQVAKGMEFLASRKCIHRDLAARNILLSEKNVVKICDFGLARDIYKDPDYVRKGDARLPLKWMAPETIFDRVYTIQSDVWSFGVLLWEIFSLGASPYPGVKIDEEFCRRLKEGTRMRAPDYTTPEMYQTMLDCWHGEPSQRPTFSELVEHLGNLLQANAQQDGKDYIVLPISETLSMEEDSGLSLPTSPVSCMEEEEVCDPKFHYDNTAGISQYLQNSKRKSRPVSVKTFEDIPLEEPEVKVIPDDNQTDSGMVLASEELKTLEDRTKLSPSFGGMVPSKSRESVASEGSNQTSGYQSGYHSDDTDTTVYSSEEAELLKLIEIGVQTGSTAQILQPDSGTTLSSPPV

Target: Vascular endothelial growth factor receptor 2 (Homo sapiens, UniProt P35968)
Assay: Inhibition of human VEGFR2 after 60 mins

SMILES: COc1cc2nccc(Oc3ccc4c(C(=O)Nc5ccc(Cl)cc5)cccc4c3)c2cc1OC
- IC50: 0.49 nM
